Data from patent publication US20080194611A1, “Modulation of Cell Barrier Dysfunction” (priority 2005, published 2008).

What was measured:
[1] = tested on: PA-I lectin/adhesin expression in P. aeruginosa PA27853 and PAO1
[2] = tested on: P. aeruginosa whole cells and membrane fractions; test: ELISA / immunofluorescence binding of cytokines to P. aeruginosa cells and membrane fractions; design: species or system Pseudomonas aeruginosa; settings: PAO1 membranes
Protocol: IFN-γ direct binding to a protein on the surface of P. aeruginosa, in the course of virulence activation, was also investigated. ELISA binding assays were performed by first coating microtiter plates with P. aeruginosa (strain PAO1), then adding recombinant human IFN-γ (rH IFN-γ), followed by biotin-labeled anti-IFN-γ antibody. […] The ELISA data were confirmed by the results of immunofluorescent imaging of bacterial cells exposed to IFN-γ followed by biotin-labeled anti-IFN-γ antibody and Alexa 594-labeled streptavidin. The vast majority of bacterial cells (73%±3.2% vs. 8.5%±2.5%) bound IFN-γ (FIG. 3B). The binding capacity of the IFN-γ to the P. aeruginosa was affected by bacterial growth phase (FIG. 4A). In order to localize the binding site of IFN-γ to P. aeruginosa (PAO1), equal protein concentrations of membrane and cytosol fractions of P. aeruginosa were prepared and coated onto ELISA microtiter plates. […] To determine if the observed membrane binding by IFN-γ was protein dependent, membrane fractions were treated with proteinase K for 3 hours and IFN-γ binding assessed. […] We next determined if other cytokines similarly would bind to P. aeruginosa cell membranes by performing reiterative binding studies with human TNF-α, IL-2, IL-4, IL-10, EGF, and TGF-β.

What does the source list for IL-2: human cytokine?
PA-I expression, compound alone in media [1]: none of the other compounds alone had any effect; binding to P. aeruginosa membrane fractions [2]: No binding was observed
